Measured values as given in ChEMBL document CHEMBL5053503 (2021).

Chains of the proteins cited; added tags and fusions are not shown. Lines headed by an entry give the natural chain unless they say otherwise; changes in a name come on top.
UniProt P28335: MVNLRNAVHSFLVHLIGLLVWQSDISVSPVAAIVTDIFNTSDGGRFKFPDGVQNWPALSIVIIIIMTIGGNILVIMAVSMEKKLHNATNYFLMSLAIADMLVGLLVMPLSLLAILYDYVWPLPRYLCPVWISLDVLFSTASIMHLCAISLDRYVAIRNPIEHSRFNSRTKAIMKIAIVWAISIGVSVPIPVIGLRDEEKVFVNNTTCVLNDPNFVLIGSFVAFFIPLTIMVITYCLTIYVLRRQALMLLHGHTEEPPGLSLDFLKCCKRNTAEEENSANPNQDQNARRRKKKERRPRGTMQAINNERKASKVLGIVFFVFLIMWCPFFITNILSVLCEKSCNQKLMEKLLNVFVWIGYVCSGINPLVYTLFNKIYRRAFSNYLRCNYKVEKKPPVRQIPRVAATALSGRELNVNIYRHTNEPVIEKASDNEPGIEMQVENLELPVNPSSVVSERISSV

Biological target: 5-hydroxytryptamine receptor 2C (Homo sapiens, UniProt P28335)
Test: biochemical

Cn1ccc2cc3c(cc21)CCN3C(=O)Nc1cccnc1 was tested. Which Ki did it give?
The Ki was 2.8 nM.
